The numbers were not newly measured in US11213486B2, “Drug-containing fat emulsion and nethod for producing same” (Techno Guard Co. Ltd., priority 2017, dated 2022), which cites them from elsewhere.

For the data set the following is noted: of the drug contained in the emulsion.

Turning to dexamethasone palmitate, the “Solubility in water (expression in Japanese Pharmacopoeia)” value was “Practically insoluble”.
